The assay deals with RENCA cells. The assay is described as follows: Anti-tumor response of tumor-bearing mice (RENCA tumor model). To be noted: G4: Isotype 5 mpk + Pazopanib 100 mpk qd; Mean ± SEM; day 17. The class given is in vivo, BALB/c mice. How it is done:
The anti-tumor therapeutic response of tumor-bearing mice to treatment with one of three regimens: monotherapy with a murine anti-mouse PD-1 monoclonal antibody (Anti-PD1), monotherapy with pazopanib and combination therapy with these two agents administered concurrently.
A cohort of 8 weeks old female BALB/c mice were implanted with 1×10^6 RENCA cells. When the tumors were ˜115 cubic mm, the tumor-bearing mice were randomized to the following 9 treatment groups of 12 mice per group: (1) 5 mg/Kg Isotype+Vehicle control group; (2) 1 mg/Kg Anti-PD1+Vehicle control; (3) 5 mg/Kg Anti-PD1+Vehicle control; (4) once daily pazopanib+5 mg/Kg Isotype control; (5) once daily pazopanib+5 mg/Kg Anti-PD1; (6) once daily pazopanib+1 mg/Kg Isotype control; (7) once daily pazopanib+1 mg/Kg Anti-PD1; (8) twice daily pazopanib+5 mg/Kg Isotype and (9) twice daily pazopanib+5 mg/Kg Anti-PD1. The Vehicle control was 0.5% hydroxypropylemethylcellulose, 0.1% Tween-80 in distilled water, pH adjusted to 1.3-1.5 with 0.1N hydrochloric acid. The Isotype control was mouse IgG1 specific for an adenoviral hexon protein (clone TC31.27F11). Anti-PD1 was administered to treatment groups 2 and 7 at 1 mg/kg i.p., or groups 3, 5, and 9 at 5 mg/Kg i.p. every 5 days for each of 5 cycles. […]

The structures appear in SMILES notation. Counter-ions that a name gives are not always drawn.

Turning to `Cc1ccc(Nc2nccc(N(C)c3ccc4c(C)n(C)nc4c3)n2)cc1S(N)(=O)=O` [Pazopanib, 5-[[4-[(2,3-dimethyl-2H-indazol-6-yl)methylamino]-2-pyrimidinyl]amino]-2-methylbenzenesulfonamide monohydrochloride], the “Tumor Size (D17)” value was 1,555 ± 162 mm^3.

Source of the values: patent US20160303231A1, “TREATING CANCER WITH A COMBINATION OF A PD-1 ANTAGONIST AND A VEGFR INHIBITOR” (GLAXOSMITHKLINE LLC, priority 2013, published 2016).
